In patent publication US20230210903A1, “HYPOXIA-RESISTANT NATURAL KILLER CELLS” (ONK THERAPEUTICS LIMITED, priority 2020, published 2023):

System: phosphorylation of ERK and STAT3
Assay: Western blotting of ERK and STAT3 phosphorylation in hypoxic KHYG-1 cells
Type: cell-based
Settings: hypoxic KHYG-1 cells pre-treated with 5 μM for 2 h
Procedure: For western blotting, treated and untreated KHYG-1 and NK92 cells were lysed in buffer containing 50 mM Tris, 150 mM NaCl, 1% Triton X-100, 1% sodium deoxycholate, 0.1% SDS and protease inhibitors on ice for 30 min. Lysates were centrifuged at 12,000 rpm for 15 min, and supernatants were collected. Protein concentration was determined by the BCA protein assay kit (HEART Biotech, #WB003). Equal amounts of protein were loaded and separated on sodium dodecyl sulfate-polyacrylamide gel electrophoresis gel, and transferred onto a PVDF membrane (Millipore, #IPVH00010). After blocking for 1 h with 5% non-fat milk in PBS with 0.1% Tween-20 at room temperature, the membrane was incubated with primary antibody at 4° C. overnight. Immunoblots were visualized using HRP-conjugated secondary antibodies and the ECL Western Blot Detection kit (Phygene Life Sciences, #PH0353).
Prior to siRNA transfection, KHYG-1 cells were washed in pre-warmed Opti-MEM medium (Life Technologies, Carlsbad, Calif., USA) and resuspended in the same medium. Then, 10^6 cells were electroporated with 2 μg of siRNA in 100 μL Opti-MEM medium in 0.2 cm cuvettes with an electroporator CUY21EDIT (BEX Co. Ltd, Japan). […] Transfection efficiency and viability were analyzed by flow cytometry 2-6 h after electroporation by quantitatively measuring the expression of fluorescein isothiocyanate (FITC)-labeled siRNA or 7-AAD. […]

CC1(N)CCN(c2cnc(-c3cccc(Cl)c3Cl)c(N)n2)CC1 [SHP099]
phosphorylation of ERK and STAT3: no effect
